Assay results from ChEMBL document CHEMBL6115009.
Active and inactive are the calls of the source.

Sequences of proteins named here, by UniProt entry; tags and fusion partners are left off. A change or cut given only in a name is not applied to a line headed by its entry.
UniProt Q13224, whole entry, looked up: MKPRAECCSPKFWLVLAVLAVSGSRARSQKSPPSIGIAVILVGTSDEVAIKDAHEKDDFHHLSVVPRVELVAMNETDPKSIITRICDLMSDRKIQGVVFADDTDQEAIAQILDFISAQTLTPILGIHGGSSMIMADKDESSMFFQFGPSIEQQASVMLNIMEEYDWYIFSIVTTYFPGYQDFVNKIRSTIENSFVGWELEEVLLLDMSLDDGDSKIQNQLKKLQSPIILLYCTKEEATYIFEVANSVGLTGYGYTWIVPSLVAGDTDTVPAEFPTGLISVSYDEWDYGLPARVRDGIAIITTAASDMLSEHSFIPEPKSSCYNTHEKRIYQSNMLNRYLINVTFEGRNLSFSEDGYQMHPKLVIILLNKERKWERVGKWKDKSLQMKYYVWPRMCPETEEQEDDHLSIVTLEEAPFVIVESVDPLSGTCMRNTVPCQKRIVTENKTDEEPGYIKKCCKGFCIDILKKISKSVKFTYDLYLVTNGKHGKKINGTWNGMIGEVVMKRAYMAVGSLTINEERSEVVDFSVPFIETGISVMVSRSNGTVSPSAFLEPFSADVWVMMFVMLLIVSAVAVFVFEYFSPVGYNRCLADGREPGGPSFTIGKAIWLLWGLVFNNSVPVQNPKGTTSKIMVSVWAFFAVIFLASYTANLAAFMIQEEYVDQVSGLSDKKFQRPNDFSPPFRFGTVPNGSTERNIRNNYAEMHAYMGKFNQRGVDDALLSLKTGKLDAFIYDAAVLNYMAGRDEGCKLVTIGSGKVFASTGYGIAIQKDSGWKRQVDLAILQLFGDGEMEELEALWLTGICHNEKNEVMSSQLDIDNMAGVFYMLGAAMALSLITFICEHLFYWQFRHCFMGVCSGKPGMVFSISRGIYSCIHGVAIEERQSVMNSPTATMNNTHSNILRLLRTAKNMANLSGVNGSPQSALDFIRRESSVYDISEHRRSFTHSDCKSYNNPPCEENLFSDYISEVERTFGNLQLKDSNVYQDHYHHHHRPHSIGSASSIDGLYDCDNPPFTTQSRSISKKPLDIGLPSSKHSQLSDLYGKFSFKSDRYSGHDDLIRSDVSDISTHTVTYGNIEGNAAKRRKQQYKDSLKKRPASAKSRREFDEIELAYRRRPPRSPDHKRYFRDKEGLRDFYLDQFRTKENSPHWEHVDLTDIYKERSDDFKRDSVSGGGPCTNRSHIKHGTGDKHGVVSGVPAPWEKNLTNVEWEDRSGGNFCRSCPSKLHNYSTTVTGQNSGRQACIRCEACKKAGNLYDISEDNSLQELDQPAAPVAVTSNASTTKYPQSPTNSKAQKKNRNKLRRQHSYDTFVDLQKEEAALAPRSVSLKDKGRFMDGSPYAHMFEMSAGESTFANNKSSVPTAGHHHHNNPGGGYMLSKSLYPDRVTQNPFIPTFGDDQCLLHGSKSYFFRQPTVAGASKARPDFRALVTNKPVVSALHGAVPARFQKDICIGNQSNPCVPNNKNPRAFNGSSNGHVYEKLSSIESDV
UniProt Q14957: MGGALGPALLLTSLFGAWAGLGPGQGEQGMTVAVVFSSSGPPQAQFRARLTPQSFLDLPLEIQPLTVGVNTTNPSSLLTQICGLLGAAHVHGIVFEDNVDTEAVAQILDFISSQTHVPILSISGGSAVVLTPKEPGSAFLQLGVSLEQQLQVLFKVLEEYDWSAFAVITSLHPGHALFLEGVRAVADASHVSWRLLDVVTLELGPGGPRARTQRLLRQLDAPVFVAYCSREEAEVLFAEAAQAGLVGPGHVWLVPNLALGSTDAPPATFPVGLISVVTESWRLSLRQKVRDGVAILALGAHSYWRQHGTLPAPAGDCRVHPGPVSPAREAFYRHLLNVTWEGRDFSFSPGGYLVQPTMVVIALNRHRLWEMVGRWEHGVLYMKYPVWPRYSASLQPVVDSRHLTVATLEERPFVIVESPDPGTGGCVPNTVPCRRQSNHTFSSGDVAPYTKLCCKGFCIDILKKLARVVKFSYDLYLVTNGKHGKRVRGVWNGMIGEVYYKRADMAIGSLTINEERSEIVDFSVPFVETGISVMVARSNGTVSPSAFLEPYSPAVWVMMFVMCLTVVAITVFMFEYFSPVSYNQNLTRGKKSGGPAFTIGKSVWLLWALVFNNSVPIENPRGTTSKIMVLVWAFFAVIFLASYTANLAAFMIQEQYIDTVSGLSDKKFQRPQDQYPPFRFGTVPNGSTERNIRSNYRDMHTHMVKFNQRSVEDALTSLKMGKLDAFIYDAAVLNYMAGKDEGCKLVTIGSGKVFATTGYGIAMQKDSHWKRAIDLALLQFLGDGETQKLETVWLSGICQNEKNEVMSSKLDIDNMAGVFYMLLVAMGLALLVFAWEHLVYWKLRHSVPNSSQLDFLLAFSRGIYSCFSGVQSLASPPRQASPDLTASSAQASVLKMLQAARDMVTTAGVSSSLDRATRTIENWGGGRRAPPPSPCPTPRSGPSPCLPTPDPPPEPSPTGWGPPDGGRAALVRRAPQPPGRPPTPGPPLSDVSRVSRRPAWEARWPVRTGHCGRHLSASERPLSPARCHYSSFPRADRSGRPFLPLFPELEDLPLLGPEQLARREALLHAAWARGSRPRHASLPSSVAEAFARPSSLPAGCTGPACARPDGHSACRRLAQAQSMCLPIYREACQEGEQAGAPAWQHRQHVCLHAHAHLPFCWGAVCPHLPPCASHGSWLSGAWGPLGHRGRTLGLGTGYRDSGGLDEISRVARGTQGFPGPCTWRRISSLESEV
UniProt O15399, whole entry, looked up: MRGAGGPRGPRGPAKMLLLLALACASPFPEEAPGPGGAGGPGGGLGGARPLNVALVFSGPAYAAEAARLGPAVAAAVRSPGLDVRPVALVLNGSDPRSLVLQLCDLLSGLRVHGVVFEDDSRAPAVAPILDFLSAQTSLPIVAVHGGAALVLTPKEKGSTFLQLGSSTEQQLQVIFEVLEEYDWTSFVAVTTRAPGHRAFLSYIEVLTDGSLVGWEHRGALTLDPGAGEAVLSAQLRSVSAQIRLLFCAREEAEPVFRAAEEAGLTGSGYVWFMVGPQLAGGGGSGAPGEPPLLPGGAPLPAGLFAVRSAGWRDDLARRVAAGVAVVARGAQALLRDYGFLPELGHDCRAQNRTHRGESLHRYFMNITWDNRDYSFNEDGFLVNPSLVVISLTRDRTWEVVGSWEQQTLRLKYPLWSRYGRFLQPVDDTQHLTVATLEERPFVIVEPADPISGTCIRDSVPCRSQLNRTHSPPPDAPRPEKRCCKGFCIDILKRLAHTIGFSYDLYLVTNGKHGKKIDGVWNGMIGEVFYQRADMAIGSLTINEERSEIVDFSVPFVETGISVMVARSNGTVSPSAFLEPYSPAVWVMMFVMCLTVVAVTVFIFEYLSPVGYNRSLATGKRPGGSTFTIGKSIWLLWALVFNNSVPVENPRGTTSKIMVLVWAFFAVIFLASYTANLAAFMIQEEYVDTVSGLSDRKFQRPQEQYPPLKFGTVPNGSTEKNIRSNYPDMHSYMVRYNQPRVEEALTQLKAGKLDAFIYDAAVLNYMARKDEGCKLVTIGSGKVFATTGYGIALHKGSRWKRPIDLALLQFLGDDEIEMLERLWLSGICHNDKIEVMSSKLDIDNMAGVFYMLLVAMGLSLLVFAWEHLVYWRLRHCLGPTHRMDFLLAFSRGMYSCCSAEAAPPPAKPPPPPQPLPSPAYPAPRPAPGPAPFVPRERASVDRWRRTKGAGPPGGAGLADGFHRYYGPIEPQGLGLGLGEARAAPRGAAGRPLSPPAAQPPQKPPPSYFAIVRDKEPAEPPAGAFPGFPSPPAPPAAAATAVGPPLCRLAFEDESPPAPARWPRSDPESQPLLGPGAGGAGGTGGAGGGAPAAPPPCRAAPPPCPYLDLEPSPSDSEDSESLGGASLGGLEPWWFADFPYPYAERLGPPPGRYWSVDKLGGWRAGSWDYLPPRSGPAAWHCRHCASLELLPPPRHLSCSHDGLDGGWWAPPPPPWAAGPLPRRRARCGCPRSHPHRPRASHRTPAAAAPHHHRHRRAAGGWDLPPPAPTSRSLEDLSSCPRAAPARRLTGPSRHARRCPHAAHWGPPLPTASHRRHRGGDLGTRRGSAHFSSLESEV

Tests used:
Format in all cases: cell-based
[1] = molecular target: Glutamate NMDA receptor; GRIN1/GRIN2B (Homo sapiens) (UniProt Q05586+Q13224); assay: Antagonist activity at GluN1/GluN2B receptor (unknown origin) overexpressed in CHO cells assessed as inhibition of Ca2+ flux incubated for 24 hrs in presence of glycine/L-glutamate by FLIPR assay
[2] = molecular target: Ionotropic glutamate receptor NMDA 1/2C (Homo sapiens) (UniProt Q05586+Q14957); assay: Antagonist activity at GluN1/GluN2C receptor (unknown origin) overexpressed in CHO cells assessed as inhibition of Ca2+ flux incubated for 24 hrs in presence of glycine/L-glutamate by FLIPR assay
[3] = molecular target: Ionotropic glutamate receptor NMDA 1/2D (Homo sapiens) (UniProt Q05586+O15399); assay: Antagonist activity at GluN1/GluN2D receptor (unknown origin) overexpressed in CHO cells assessed as inhibition of Ca2+ flux incubated for 24 hrs in presence of glycine/L-glutamate by FLIPR assay

Measured: inhibition

CCC1=N[C@H](C)CC1(c1ccccc1)c1ccccc1
inactive: all assays above

CCC1=N[C@@H](C)CC1(c1ccccc1)c1ccccc1
inactive: all assays above
